Apparent affinities of Ab-14 variants for a coronavirus HR2 peptide

The target is the same throughout: PDVDLGDISGINAS, from the HR2 region of SARS-CoV-2 spike.

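The starting antibody came from a phage panning campaign against this peptide. Library AAYL49 holds single substitutions and randomly drawn double and triple substitutions in the CDRs. The assay is AlphaSeq: two haploid yeast populations carry antibody and antigen on their surface. Mating (16 h, 30 °C) was followed by selection of diploids and sequencing of their barcodes. A regression on co-assayed BCL2-family reference pairs converts the normalised counts of each replicate to an apparent Kd. Each pool was mated in three replicate cultures.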

Parent: Ab-14, a human scFv built as VH, a 15-residue (Gly4Ser)3 linker, VL. Only the CDRs of the heavy chain vary.
VH: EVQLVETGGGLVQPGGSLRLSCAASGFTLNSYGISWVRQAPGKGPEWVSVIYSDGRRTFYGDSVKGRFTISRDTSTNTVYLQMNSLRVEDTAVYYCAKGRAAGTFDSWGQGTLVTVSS
VL: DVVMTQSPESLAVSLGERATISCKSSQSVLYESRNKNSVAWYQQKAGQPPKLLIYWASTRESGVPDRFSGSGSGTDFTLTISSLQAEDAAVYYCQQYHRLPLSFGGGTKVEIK

Changes read parent residue, position, new residue, counted from the first residue of the VH shown. Scale: log10 of Kd in nM, estimated from mating counts; low values are strong binders. Averages over replicates are reported, and they cover detected replicates only. "nd" marks a missing value. The strain was present, yet no cells mated with the target were sequenced in that replicate, which points to weak or no binding. Three control strains display no target. For library AAYL49, 15% of the pairings with them gave a signal, with a median of 4.06 and one signal in twenty below 2.83, so weak values seen in few replicates may be background. The control count says in how many pairings with the empty strains this scFv gave a signal, with their mean in brackets. In this assay the parent's reference entry averaged 0.65; its copy inside this library read 4.11 (one replicate of three).

{"changes": "V64K T104S F105C", "log10 Kd, replicates": "nd / nd / nd", "mean log10 Kd (nM)": "nd", "signal with controls": "1/9 (3.01)"}
{"changes": "N30M R57W G99H", "log10 Kd, replicates": "3.78 / nd / 4.08", "mean log10 Kd (nM)": "3.93", "signal with controls": "2/9 (3.31)"}
{"changes": "G26K N30D G103W", "log10 Kd, replicates": "nd / nd / nd", "mean log10 Kd (nM)": "nd", "signal with controls": "1/9 (2.94)"}
{"changes": "S31D S53E G99L", "log10 Kd, replicates": "nd / nd / nd", "mean log10 Kd (nM)": "nd", "signal with controls": "0/9"}
{"changes": "F27P S63Y", "log10 Kd, replicates": "nd / nd / nd", "mean log10 Kd (nM)": "nd", "signal with controls": "0/9"}
{"changes": "S35R S53R F59S", "log10 Kd, replicates": "nd / nd / nd", "mean log10 Kd (nM)": "nd", "signal with controls": "2/9 (3.94)"}
{"changes": "Y60I G99Q S107H", "log10 Kd, replicates": "nd / nd / nd", "mean log10 Kd (nM)": "nd", "signal with controls": "1/9 (3.36)"}
{"changes": "I51E S53E", "log10 Kd, replicates": "nd / nd / nd", "mean log10 Kd (nM)": "nd", "signal with controls": "2/9 (3.44)"}
{"changes": "T28Q I34S K65M", "log10 Kd, replicates": "nd / nd / nd", "mean log10 Kd (nM)": "nd", "signal with controls": "3/9 (3.89)"}
{"changes": "T28G A101Q A102Y", "log10 Kd, replicates": "5.23 / nd / nd", "mean log10 Kd (nM)": "5.23", "signal with controls": "0/9"}
{"changes": "S35P G61V D106V", "log10 Kd, replicates": "nd / nd / nd", "mean log10 Kd (nM)": "nd", "signal with controls": "1/9 (4.71)"}
{"changes": "G55H A102E", "log10 Kd, replicates": "nd / nd / nd", "mean log10 Kd (nM)": "nd", "signal with controls": "0/9"}
{"changes": "Y52F F59Y D106K", "log10 Kd, replicates": "nd / 4.12 / nd", "mean log10 Kd (nM)": "4.12", "signal with controls": "4/9 (4.31)"}
{"changes": "G26V V50C R57Y", "log10 Kd, replicates": "nd / 4.15 / 5.60", "mean log10 Kd (nM)": "4.87", "signal with controls": "5/9 (4.70)"}
{"changes": "I51C R100G A102E", "log10 Kd, replicates": "nd / 3.89 / nd", "mean log10 Kd (nM)": "3.89", "signal with controls": "5/9 (4.20)"}
{"changes": "F27Y N30L G103N", "log10 Kd, replicates": "nd / nd / nd", "mean log10 Kd (nM)": "nd", "signal with controls": "0/9"}
{"changes": "S31T D54V", "log10 Kd, replicates": "nd / nd / nd", "mean log10 Kd (nM)": "nd", "signal with controls": "2/9 (2.49)"}
{"changes": "Y32G R56N A101K", "log10 Kd, replicates": "4.69 / 4.62 / nd", "mean log10 Kd (nM)": "4.65", "signal with controls": "2/9 (4.87)"}
{"changes": "N30Q V50W", "log10 Kd, replicates": "3.66 / nd / nd", "mean log10 Kd (nM)": "3.66", "signal with controls": "0/9"}
{"changes": "G26F R100M A101H", "log10 Kd, replicates": "nd / nd / nd", "mean log10 Kd (nM)": "nd", "signal with controls": "0/9"}
{"changes": "F27G T58F G61S", "log10 Kd, replicates": "2.78 / 2.90 / 2.39", "mean log10 Kd (nM)": "2.69", "signal with controls": "0/9"}
{"changes": "G61I G99I T104P", "log10 Kd, replicates": "0.48 / 0.75 / 0.63", "mean log10 Kd (nM)": "0.62", "signal with controls": "3/9 (4.29)"}
{"changes": "L29E D54L A101M", "log10 Kd, replicates": "nd / 4.92 / nd", "mean log10 Kd (nM)": "4.92", "signal with controls": "3/9 (3.54)"}
{"changes": "I34S V50M", "log10 Kd, replicates": "nd / nd / nd", "mean log10 Kd (nM)": "nd", "signal with controls": "5/9 (4.65)"}
{"changes": "D54H G61I T104L", "log10 Kd, replicates": "nd / nd / nd", "mean log10 Kd (nM)": "nd", "signal with controls": "1/9 (4.91)"}
{"changes": "N30Q S35K A101Q", "log10 Kd, replicates": "nd / nd / nd", "mean log10 Kd (nM)": "nd", "signal with controls": "0/9"}
{"changes": "F27M L29R S35Y", "log10 Kd, replicates": "0.52 / 0.82 / 0.67", "mean log10 Kd (nM)": "0.67", "signal with controls": "1/9 (4.12)"}
{"changes": "G55D F59Q R100G", "log10 Kd, replicates": "4.06 / nd / nd", "mean log10 Kd (nM)": "4.06", "signal with controls": "1/9 (5.54)"}
{"changes": "Y32A R57G F105N", "log10 Kd, replicates": "nd / 4.10 / nd", "mean log10 Kd (nM)": "4.10", "signal with controls": "3/9 (3.36)"}
{"changes": "F27W T28L S107L", "log10 Kd, replicates": "2.74 / 2.32 / 2.13", "mean log10 Kd (nM)": "2.40", "signal with controls": "1/9 (4.91)"}
{"changes": "T28D G55H", "log10 Kd, replicates": "nd / nd / nd", "mean log10 Kd (nM)": "nd", "signal with controls": "0/9"}
{"changes": "G33V V64T A101M", "log10 Kd, replicates": "nd / 4.95 / nd", "mean log10 Kd (nM)": "4.95", "signal with controls": "2/9 (3.69)"}

From the list, the first 3 with no signal in any replicate:

{"changes": "V64K T104S F105C", "log10 Kd, replicates": "nd / nd / nd", "mean log10 Kd (nM)": "nd", "signal with controls": "1/9 (3.01)"}
{"changes": "G26K N30D G103W", "log10 Kd, replicates": "nd / nd / nd", "mean log10 Kd (nM)": "nd", "signal with controls": "1/9 (2.94)"}
{"changes": "S31D S53E G99L", "log10 Kd, replicates": "nd / nd / nd", "mean log10 Kd (nM)": "nd", "signal with controls": "0/9"}

Values reported by Engelhart et al. 2022, doi:10.1038/s41597-022-01779-4 (FLAb copy).